Test results as given in PubChem BioAssay (NCI).
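A five-concentration, 48-hour dose response in 96-well plates underlies each endpoint, interpolated linearly between surrounding concentrations. At the GI50, growth is halved. TGI is the concentration that stops growth completely.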

System: MDA-MB-468 breast
Test: NCI tumour cell line growth inhibition, 48 h

NCCc1ccc(N(CCCl)CCCl)cc1
GI50: 1.27 µM
TGI: 6.08 µM
